From ChEMBL document CHEMBL5726294, “Derivatives of 6-(2,3-dichlorophenyl)-1,2,4-triazin-5-amine” (2019)

By UniProt entry, the sequences of proteins in these tests, tags left out.
UniProt Q15858, whole entry: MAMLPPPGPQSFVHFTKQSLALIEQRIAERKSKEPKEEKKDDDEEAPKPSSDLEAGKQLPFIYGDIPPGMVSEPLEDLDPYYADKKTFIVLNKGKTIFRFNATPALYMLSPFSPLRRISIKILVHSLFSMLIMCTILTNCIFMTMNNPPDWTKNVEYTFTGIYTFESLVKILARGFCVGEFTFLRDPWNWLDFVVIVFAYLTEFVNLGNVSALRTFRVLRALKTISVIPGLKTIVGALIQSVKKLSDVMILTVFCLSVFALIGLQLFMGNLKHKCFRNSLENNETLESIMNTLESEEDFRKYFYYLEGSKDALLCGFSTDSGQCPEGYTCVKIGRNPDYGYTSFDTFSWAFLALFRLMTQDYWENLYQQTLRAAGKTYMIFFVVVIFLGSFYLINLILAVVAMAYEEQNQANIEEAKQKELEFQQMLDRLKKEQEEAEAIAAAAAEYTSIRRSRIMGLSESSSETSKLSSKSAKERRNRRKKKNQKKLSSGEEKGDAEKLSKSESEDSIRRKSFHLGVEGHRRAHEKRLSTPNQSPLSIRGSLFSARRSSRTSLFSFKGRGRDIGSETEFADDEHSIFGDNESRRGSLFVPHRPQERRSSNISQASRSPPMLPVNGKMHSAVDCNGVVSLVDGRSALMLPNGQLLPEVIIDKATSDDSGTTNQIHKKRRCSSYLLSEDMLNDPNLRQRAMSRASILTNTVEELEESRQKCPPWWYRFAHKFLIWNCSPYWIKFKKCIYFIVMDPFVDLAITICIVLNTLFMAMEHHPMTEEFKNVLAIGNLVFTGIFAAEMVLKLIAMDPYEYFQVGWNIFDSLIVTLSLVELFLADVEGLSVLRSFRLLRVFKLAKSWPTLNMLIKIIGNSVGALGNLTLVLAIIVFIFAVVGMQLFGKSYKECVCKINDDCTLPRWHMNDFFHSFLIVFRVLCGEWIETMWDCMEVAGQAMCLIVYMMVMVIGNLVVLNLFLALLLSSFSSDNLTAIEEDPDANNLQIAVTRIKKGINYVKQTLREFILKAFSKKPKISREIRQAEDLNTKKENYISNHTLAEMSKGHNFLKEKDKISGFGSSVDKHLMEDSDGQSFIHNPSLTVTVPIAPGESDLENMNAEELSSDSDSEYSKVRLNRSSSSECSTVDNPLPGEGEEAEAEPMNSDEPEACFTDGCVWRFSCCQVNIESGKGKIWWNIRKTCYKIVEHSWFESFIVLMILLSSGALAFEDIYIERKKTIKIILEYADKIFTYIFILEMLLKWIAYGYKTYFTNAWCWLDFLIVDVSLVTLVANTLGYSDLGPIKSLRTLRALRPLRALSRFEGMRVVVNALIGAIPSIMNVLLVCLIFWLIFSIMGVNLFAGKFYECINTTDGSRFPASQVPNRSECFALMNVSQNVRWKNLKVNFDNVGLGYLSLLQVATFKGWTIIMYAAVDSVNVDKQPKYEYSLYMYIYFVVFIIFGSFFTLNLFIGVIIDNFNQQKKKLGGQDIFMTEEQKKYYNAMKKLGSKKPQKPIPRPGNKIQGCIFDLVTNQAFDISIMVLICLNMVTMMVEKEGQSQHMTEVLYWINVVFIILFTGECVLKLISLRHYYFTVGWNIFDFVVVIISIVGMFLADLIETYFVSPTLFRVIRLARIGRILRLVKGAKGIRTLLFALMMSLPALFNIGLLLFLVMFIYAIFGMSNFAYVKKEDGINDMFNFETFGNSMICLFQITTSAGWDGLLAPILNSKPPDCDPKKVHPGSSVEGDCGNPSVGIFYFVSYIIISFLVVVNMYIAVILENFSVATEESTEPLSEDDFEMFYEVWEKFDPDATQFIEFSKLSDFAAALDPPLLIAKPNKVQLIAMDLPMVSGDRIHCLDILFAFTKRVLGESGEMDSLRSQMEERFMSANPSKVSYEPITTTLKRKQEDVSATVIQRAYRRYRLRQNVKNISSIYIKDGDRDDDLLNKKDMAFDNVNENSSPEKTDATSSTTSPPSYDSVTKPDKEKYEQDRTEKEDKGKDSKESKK

Experiments:
[1] = molecular target: T1, Sodium channel protein type 9 subunit alpha (Homo sapiens, UniProt Q15858); assay: (§1) Ex-Vivo Potencies in Tonic state: The potencies of the compounds provided herein to block specific Na+ channels was measured using automated patch clamp electrophysiologically of Nav1.7 sodium channels (human SCN9A gene) stably expressed in CHO cells using the IonWorks Barracuda system. Currents were measured from the whole cell patch configuration. From a holding potential of −90 mV, membranes were subjected to a 200 ms pre-pulse to −120 mV, then pulsed to 0 mV to measure blockade of the tonic (resting) state. Inactivated state block was elicited by repolarization to −100 mV (20 ms pulse duration), followed by depolarization to 0 mV (20 ms pulse duration). Peak inward Na+ currents were measured in the presence of vehicle or various concentrations of the test compound to determine the percent block of current.; assay type: cell-based
[2] = molecular target: T1, Sodium channel protein type 9 subunit alpha; assay: as §1, with “Inactivated” for “Tonic”; assay type: cell-based

IC50 [1]: > 200 µM
IC50 [2]: 256 µM
Structure (SMILES): COC[C@@H](O)COC1CN(c2nnc(-c3cccc(Cl)c3Cl)c(N)n2)C1
